Read-outs that look alike come from different tables or passages of the source. Marks after values point to notes of the source that are not given here.
What was measured:
BxPC3 cells [1] = assay: PIT killing activity of dual conjugates, normalized to cetuximab-IRDye 700DX; type: cell-based; settings: solo conjugates without IRDye 700DX
Description: BxPC3 cells (#CRL-1687, ATCC, Manassas Va., USA) were seeded in a 96-well, white-walled, clear bottom, tissue culture (TC)-treated polystyrene plate at a concentration of 5,000 cells/well in RPMI-1640 media supplemented with 10% FBS and 1% Penicillin/Streptomycin (complete culture media) and incubated overnight at 37° C. The following day complete culture media was replaced with fresh complete culture media alone or media containing either 500 ng/ml or 100 ng/mL of test agent as indicated, and the plate was incubated for one hour at 37° C.
The cells were then illuminated with a 690 nm laser at a light dose of either 16 J/Cm^2 or 32 J/cm^2 or protected from light (“no light”).
The effect of the different treatment regimens on cell death was measured using the fluorescent stain, CellTox Green (Catalog No: G8731, Promega, Madison, Wis., USA) substantially as described in Example 6.

BxPC3 cells [2] = assay: PIT with cetuximab conjugates with or without donkey anti-human-IRDye 700DX; type: cell-based; settings: 250 ng/mL 1st incubation
Description: The cells were then washed one time with complete culture media, incubated for 30 minutes at 4° C. with or without 2 μg/mL Donkey anti-Human IRDye 700DX conjugated (DxHu IR700) secondary antibody diluted with complete culture media, and then washed one time with complete culture media. The cells were then illuminated with a 690 nm laser at a light dose of 16 J/cm^2 or protected from light (“no light”).
The effect of different treatment regimens on cell death was measured using the fluorescent stain, CellTox Green (Cat No: G8731, Promega, Madison, Wis.). […] After the light treatment, all cells were incubated with 1× CellTox Green reagent diluted in complete culture media. […] The CellTox Green fluorescence signal was measured at 24 hours after light treatment using a fluorescence plate reader. The cells were then lysed with detergent, incubated at 37° C. for 30 minutes, and the CellTox Green fluorescence signal was measured again post lysis. The percent dead cells was calculated by taking the ratio between background (lx CellTox Green in complete culture media without cells) subtracted CellTox Green signal per well prior to and post lysis and multiplying the ratio by 100.

BxPC3 cells [3] = assay: PIT with cetuximab and donkey anti-human-IRDye 700DX secondary antibody; type: cell-based; settings: sequentially labeled with donkey anti-human IRDye 700DX secondary antibody
Description: The cells were then washed one time with complete culture media, incubated for 30 minutes at 4° C. with or without IRDye 700DX conjugated (DxHu IRDye 700DX) secondary antibody diluted with complete culture media, and then washed one time with complete culture media. […] To induce cell killing, the cells were then illuminated with a 690 nm laser at a light dose of 16 J/cm^2 or protected from light (“no light”). Cell death was evaluated as described in Example 6 using CellTox Green.

Head and Neck cancer = settings: cited from earlier work
BxPC3 cells [4] = assay: Fluorescence of cells stained with cetuximab conjugates with or without secondary antibody, flow cytometry; type: cell-based; settings: 250 ng/mL 1st incubation, 2nd incubation 2 μg/mL Don × Hu IRDye 700DX
[5] = in vivo, cited from earlier work
BxPC3 cells [6] = assay: Cell staining with dual CTX-IRDye 700DX conjugates, flow cytometry; type: cell-based; settings: excitation 488 nm, emission filter (530 nm/30 nm)
BxPC3 cells [7] = assay: PIT with biotinylated cetuximab pre-complexed with monomeric streptavidin-IRDye 700DX; type: cell-based
Description: The cells were then washed one time with complete culture media. The cells were either protected from light (light dose 0 J/cm^2) or were illuminated with a 690 nm laser with different light dosimetries (2 J/cm^2, 8 J/cm^2, 32 J/cm^2 or 64 J/cm^2). Cell death was evaluated as described in Example 6 using CellTox Green.
The cells were then washed one time. […] The cells were then washed one time with complete culture media.
The effect of indirect killing of cells using monomeric streptavidin-IRDye 700DX that had been exposed to different types of light was also evaluated. Thirty microliters of monomeric streptavidin-IRDye 700DX conjugate (DAR 1.35) was added per clear HPLC vial at a monomeric streptavidin conjugate concentration of 865 μg/mL. The following conditions were tested: (1) the monomeric streptavidin-IRDye 700DX conjugate was placed in a clear glass HPLC tube wrapped in aluminum foil to protect from light exposure under a halogen lamp at 2500 lux for 24 hrs (“no light”; to control for thermal heating effects); (2) the monomeric streptavidin-IRDye 700DX conjugate was placed in a clear glass HPLC tube under a halogen lamp at 2500 lux for 24 hrs (“white light”); (3) the monomeric streptavidin-IRDye 700DX conjugate was placed in a clear glass HPLC tube and exposed to green LED lamp at 2500 lux for 24 hrs (“green light”).

[8] = 2nd incubation 2 μg/mL Don × Hu IRDye 700DX

For “CTX-IRDye 800: cetuximab-IRDye 800 solo conjugate without IRDye 700DX”, the PIT cell killing (BxPC3 cells [1]) was “not able to induced PIT cell killing”.
In the case of “cetuximab: anti-EGFR antibody cetuximab (Erbitux), not conjugated”, the “% Dead cells 690 nm Light (16 J/cm^2)” value (BxPC3 cells [2]; [8]) is reported as 91.76% +/− 4.2%, the “% Dead cells No Light” value (BxPC3 cells [2]; [8]) is reported as 7.66% +/− 0.50% and the “% Dead cells 690 nm Light (16 J/cm^2)” value (BxPC3 cells [2]; no 2nd incubation) is reported as 5.89% +/− 0.49%. For the same substance, the “% Dead cells No Light” value (BxPC3 cells [2]; no 2nd incubation) was 7.17% +/− 0.86%, the cell death (BxPC3 cells [3]; 690 nm, 16 J/cm^2) was ~90% and the cell death (BxPC3 cells [3]; no light) was “did not result in cell death”. The “increase of ORR in combination with chemotherapy compared to chemotherapy alone” value (Head and Neck cancer; in vivo) was “about 16%”, the ORR (Head and Neck cancer; monotherapy, multiple doses) was ≤ 15% and the Fluorescence (BxPC3 cells [4]) was 55,134. The “Erbitux Mean AUC0-inf” value ([5]; 50 mg/m2) was 858 +/− 271, the “Erbitux Mean AUC0-inf” value ([5]; 100 mg/m2) was 3,038 +/− 655 and the “AUC0-∞” value ([5]; 250 mg/m2) was ~11,812 μg/mL*h. For the same substance, the “Erbitux Mean AUC0-inf” value ([5]; 250 mg/m2) was 11,812 +/− 3,656, the “Erbitux Mean AUC0-inf” value ([5]; 400 mg/m2) was 24,620 +/− 9,555 and the “average systemic exposure (AUC0-inf)” value ([5]; 400 mg/m2) was “about 24,620 μg*h/mL”. The “Erbitux Mean AUC0-inf” value ([5]; 500 mg/m2) was 24,740 +/− 8,259 and the “systemic exposure of a weekly dose” value [5] was 11,812 μg*h/mL.
In the case of “CTX700-Alexa Fluor488: cetuximab-IRDye 700DX further conjugated with Alexa Fluor 488”, the “Fluorescence Intensity (AU)” value (BxPC3 cells [6]) is reported as 515* AU.
With “biotinylated cetuximab pre-complexed with monomeric streptavidin-IRDye 700DX: non-covalent complex of biotinylated cetuximab and monomeric streptavidin-IRDye 700DX” the PIT killing activity (BxPC3 cells [7]; 1 μg/mL, 0, 2, 8, 32, 64 J/cm^2) was “light dose dependent”, the PIT killing (BxPC3 cells [7]; cells pre-exposed to 100 μg/mL unconjugated cetuximab) was “No light-dependent PIT killing” and the PIT killing (BxPC3 cells [7]; mSA-IRDye 700DX pre-exposed to green light, 2500 lux, 24 hours) was “some decrease in PIT killing”. The PIT killing (BxPC3 cells [7]; mSA-IRDye 700DX pre-exposed to white light, 2500 lux, 24 hours) was “no light-dependent PIT killing”, the PIT killing (BxPC3 cells [7]; mSA-IRDye 700DX protected from light with aluminum foil) was “expected light-dependent killing” and the PIT killing (BxPC3 cells [7]; pre-complexed with 10× molar excess of unconjugated monomeric streptavidin) was “no light-dependent PIT killing”.
For “Cetuximab-IRDye 680RD: cetuximab directly conjugated to IRDye 680RD”, the “% Dead cells 690 nm Light (16 J/cm^2)” value (BxPC3 cells [2]; [8]) was 92.51% +/− 0.54%, the “% Dead cells No Light” value (BxPC3 cells [2]; [8]) was 10.30% +/− 0.73% and the “% Dead cells 690 nm Light (16 J/cm^2)” value (BxPC3 cells [2]; no 2nd incubation) was 7.03% +/− 0.18%. For the same substance, the “% Dead cells No Light” value (BxPC3 cells [2]; no 2nd incubation) was 12.18% +/− 3.16%.
In the case of “cetuximab IRDye 700DX (2.5) + sulfo Cy7: cetuximab directly conjugated with IR700 and sulfonated Cy7”, the “% Dead cells 690 nm Light (16 J/cm^2)” value (BxPC3 cells [2]; [8]) is reported as 94.09% +/− 1.29%, the “% Dead cells No Light” value (BxPC3 cells [2]; [8]) is reported as 8.88% +/− 1.76% and the “% Dead cells 690 nm Light (16 J/cm^2)” value (BxPC3 cells [2]; no 2nd incubation) is reported as 12.12% +/− 0.79%. For the same substance, the “% Dead cells No Light” value (BxPC3 cells [2]; no 2nd incubation) was 7.63% +/− 1.35%.
With “cetuximab-sulfo Cy7: cetuximab directly conjugated with sulfonated Cy7” the “% Dead cells 690 nm Light (16 J/cm^2)” value (BxPC3 cells [2]; [8]) was 72.16% +/− 1.86%, the “% Dead cells No Light” value (BxPC3 cells [2]; [8]) was 7.33% +/− 0.39% and the “% Dead cells 690 nm Light (16 J/cm^2)” value (BxPC3 cells [2]; no 2nd incubation) was 4.36% +/− 0.36%. For the same substance, the “% Dead cells No Light” value (BxPC3 cells [2]; no 2nd incubation) was 6.47% +/− 0.53% and the Fluorescence (BxPC3 cells [4]) was 39,341.
For “cetuximab-Alexafluor488: cetuximab-Alexafluor488 solo conjugate without IRDye 700DX”, the PIT cell killing (BxPC3 cells [1]) was “not able to induced PIT cell killing”.
For “cetuximab-IRDye 700DX+IRDye 680RD: cetuximab directly conjugated with IRDye 700DX and IRDye 680RD”, the “% Dead cells 690 nm Light (16 J/cm^2)” value (BxPC3 cells [2]; [8]) was 96.66% +/− 2.49%, the “% Dead cells No Light” value (BxPC3 cells [2]; [8]) was 7.00% +/− 1.18% and the “% Dead cells 690 nm Light (16 J/cm^2)” value (BxPC3 cells [2]; no 2nd incubation) was 38.00% +/− 2.11%. The “% Dead cells No Light” value (BxPC3 cells [2]; no 2nd incubation) was 5.92% +/− 1.08%.
